In PMC12802937 (Nucleic Acids Research, 2026):

T1: Bre1-LR K352E/K528E (budding yeast, UniProt Q07457 227-700, K352E | K528E)
T1 construct: source: E. coli BL21 Rosetta (DE3), purified (Ni-NTA, heparin, gel filtration)
T1 sequence (looked up): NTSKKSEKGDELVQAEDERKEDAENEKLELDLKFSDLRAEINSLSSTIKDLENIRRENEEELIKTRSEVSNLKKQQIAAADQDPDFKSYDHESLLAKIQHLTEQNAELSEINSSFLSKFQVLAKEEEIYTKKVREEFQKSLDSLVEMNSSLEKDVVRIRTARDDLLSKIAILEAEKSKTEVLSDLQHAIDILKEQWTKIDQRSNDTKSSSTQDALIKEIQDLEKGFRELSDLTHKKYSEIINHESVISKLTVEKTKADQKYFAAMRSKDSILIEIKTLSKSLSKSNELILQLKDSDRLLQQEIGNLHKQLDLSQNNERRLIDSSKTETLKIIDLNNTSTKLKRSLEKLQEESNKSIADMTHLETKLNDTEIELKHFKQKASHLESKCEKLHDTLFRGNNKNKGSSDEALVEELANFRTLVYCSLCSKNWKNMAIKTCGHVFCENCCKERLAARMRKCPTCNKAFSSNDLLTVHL

T2: Bre1-LR (Bre1 residues 227–700, LBD and RING domains), 6× histidine tag (budding yeast, UniProt Q07457 227-700)
T2 construct: two Bre1 polypeptides form the dimeric coiled-coils of the LBD in the crystal structure; also called WT; source: E. coli BL21 Rosetta (DE3), purified (Ni-NTA, heparin, gel filtration)
T2 sequence (looked up): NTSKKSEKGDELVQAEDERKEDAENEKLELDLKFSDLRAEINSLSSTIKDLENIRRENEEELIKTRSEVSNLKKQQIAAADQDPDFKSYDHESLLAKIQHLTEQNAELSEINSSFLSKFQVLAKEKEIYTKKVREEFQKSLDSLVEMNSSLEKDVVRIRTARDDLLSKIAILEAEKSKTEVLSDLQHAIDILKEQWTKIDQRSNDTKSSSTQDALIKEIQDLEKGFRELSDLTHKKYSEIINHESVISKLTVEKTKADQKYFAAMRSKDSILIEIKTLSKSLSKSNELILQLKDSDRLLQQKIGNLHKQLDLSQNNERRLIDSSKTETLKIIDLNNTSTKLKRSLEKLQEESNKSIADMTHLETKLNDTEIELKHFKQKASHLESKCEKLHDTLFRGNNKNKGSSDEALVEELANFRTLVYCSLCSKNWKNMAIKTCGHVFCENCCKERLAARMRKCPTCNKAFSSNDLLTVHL

T3: Bre1-LR R360E/D368K/K519E (budding yeast, UniProt Q07457 227-700, R360E | D368K | K519E)
T3 construct: source: E. coli BL21 Rosetta (DE3), purified (Ni-NTA, heparin, gel filtration)
T3 sequence (looked up): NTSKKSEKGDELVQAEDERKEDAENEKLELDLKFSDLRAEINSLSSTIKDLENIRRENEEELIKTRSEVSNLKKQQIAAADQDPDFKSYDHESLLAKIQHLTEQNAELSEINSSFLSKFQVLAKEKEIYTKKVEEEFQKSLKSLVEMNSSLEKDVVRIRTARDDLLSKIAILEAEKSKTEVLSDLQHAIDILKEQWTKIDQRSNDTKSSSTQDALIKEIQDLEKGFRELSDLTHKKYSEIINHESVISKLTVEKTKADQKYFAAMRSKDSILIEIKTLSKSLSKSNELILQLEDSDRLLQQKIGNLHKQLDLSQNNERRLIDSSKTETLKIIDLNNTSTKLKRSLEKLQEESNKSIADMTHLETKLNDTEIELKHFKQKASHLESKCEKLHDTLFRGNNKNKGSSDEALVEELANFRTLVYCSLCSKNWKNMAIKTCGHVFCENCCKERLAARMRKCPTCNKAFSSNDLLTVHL

T4: Bre1-LR K506E/K510E (budding yeast, UniProt Q07457 227-700, K506E | K510E)
T4 construct: source: E. coli BL21 Rosetta (DE3), purified (Ni-NTA, heparin, gel filtration)
T4 sequence (looked up): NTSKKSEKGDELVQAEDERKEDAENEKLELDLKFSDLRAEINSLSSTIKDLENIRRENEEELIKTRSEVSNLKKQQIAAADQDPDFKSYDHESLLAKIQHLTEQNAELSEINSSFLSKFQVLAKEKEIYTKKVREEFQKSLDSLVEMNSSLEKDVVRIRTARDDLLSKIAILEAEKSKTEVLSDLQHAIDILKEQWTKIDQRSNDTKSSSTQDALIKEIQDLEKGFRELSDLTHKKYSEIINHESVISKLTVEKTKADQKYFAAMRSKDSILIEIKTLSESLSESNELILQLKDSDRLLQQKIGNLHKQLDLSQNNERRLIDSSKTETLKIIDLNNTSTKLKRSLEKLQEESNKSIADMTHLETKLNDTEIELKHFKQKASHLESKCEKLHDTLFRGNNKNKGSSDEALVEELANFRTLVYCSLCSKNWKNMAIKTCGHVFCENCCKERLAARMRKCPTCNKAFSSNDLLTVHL


How the values were obtained:
Test in all cases: SPR; Lge1-CT immobilised on a CM5 chip, Bre1-LR flown over; Biacore 8K, 25°C, 20 mM HEPES (pH 7.5), 200 mM sodium chloride, 0.02% Tween 20
Conditions in all cases: both partners purified
Bre1-LR K352E/K528E = target: T1, Bre1-LR K352E/K528E
[1] = target: T2, Bre1-LR (Bre1 residues 227–700, LBD and …)
[2] = target: T3, Bre1-LR R360E/D368K/K519E
Bre1-LR K506E/K510E = target: T4, Bre1-LR K506E/K510E

Kd (Bre1-LR K352E/K528E) [nM] | koff (Bre1-LR K352E/K528E) [s⁻¹] | kon (Bre1-LR K352E/K528E) [M⁻¹ s⁻¹] | koff [1] [s⁻¹] | kon [1] [M⁻¹ s⁻¹] | Kd [2] [nM] | koff [2] [s⁻¹] | kon [2] [M⁻¹ s⁻¹] | Kd (Bre1-LR K506E/K510E) [nM] | koff (Bre1-LR K506E/K510E) [s⁻¹] | kon (Bre1-LR K506E/K510E) [M⁻¹ s⁻¹] | Binder
346 | 0.00574 | 16600 |  |  |  |  |  |  |  |  | Lge1-CT D287K (domain or fragment, budding yeast, UniProt Q02796 261-332, looked up, Lge1, budding yeast, residues 261-332; source: E. coli BL21 Rosetta (DE3): cleared cell extract on chitin resin (pull-down); purified (chitin, heparin, gel filtration) for ITC and SPR) KNVKKTNNTESECEKAREVFKESDSIKSALEELNLKINSNELELRLLNNQCDKHALNIQLTQEKLDSLLLMQ
 |  |  | 0.00431 | 52800 | 579 | 0.00543 | 9370 |  |  |  | Lge1-CT E301K/R305E (domain or fragment, budding yeast, UniProt Q02796 261-332, looked up, Lge1, budding yeast, residues 261-332; source: E. coli BL21 Rosetta (DE3): cleared cell extract on chitin resin (pull-down); purified (chitin, heparin, gel filtration) for ITC and SPR) KNVKKTNNTESECEKAREVFKESDSIDSALEELNLKINSNKLELELLNNQCDKHALNIQLTQEKLDSLLLMQ
 |  |  | 0.00241 | 37800 |  |  |  | 81.7 | 0.00236 | 28900 | Lge1-CT E303K (domain or fragment, budding yeast, UniProt Q02796 261-332, looked up, Lge1, budding yeast, residues 261-332; source: E. coli BL21 Rosetta (DE3): cleared cell extract on chitin resin (pull-down); purified (chitin, heparin, gel filtration) for ITC and SPR) KNVKKTNNTESECEKAREVFKESDSIDSALEELNLKINSNELKLRLLNNQCDKHALNIQLTQEKLDSLLLMQ
